miR-21 FLuc – miR-21 reporter, rising signal; HeLa miR-21 FLuc reporter, luciferase, 48 h; Potency, µM (highest dose often 38.3 µM); 340,000 tested, under 10 active; AID 2288; active = well fitted rising curve with a large enough effect; inconclusive = small, poorly fitted or top-dose-only effect; inactive = no such curve, though single readings can be large or run the other way;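 further: miR-21 action dims this reporter so a rising signal means less miR-21 action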
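Compounds were titrated across several concentrations (up to approximately 40 uM) and incubated 48 hours with HeLa miR-21-FLuc reporter cells (miR-21 target sequence downstream of FLuc, endogenous miR-21). Readout was firefly luciferase luminescence after lytic detection reagent.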
Mito fusion act – blocks mitochondrial division or promotes mitochondrial fusion. S. cerevisiae fusion-defective mutant growth rescue, CellTiterGlo 48 h. Potency, µM (series often up to 46.1 µM), hits mostly activators. 320,000 tested, 0.23% active. AID 485298; further: nearly all actives have a fitted effect of over 45% in size
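Read-out: ATP-based luminescence (CellTiterGlo, 10 min ambient) reporting growth of fusion-defective ts yeast after 48 hours at 37C on glycerol/ethanol YPEG medium in the presence of compound.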
Nrf2 ARE act – activates Nrf2 signaling. AREc32 ARE-luciferase reporter (MCF7-derived line), luminescence, 24 h. Potency, µM (titrated, usually from 46.1 µM), usual class: activators. 410,000 tested, 0.31% active; further: nearly all actives have a fitted effect of over 65% in size
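Each well held 1000 AREc32 cells, which were incubated with compound for 24 hr at 37 deg C after overnight attachment, and ARE reporter activity was quantified by firefly luciferase luminescence.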
A549 viability – kills or reduces viability of A549 cells in Nrf2 counter-screen; A549 ARE-Fluc cells, CellTiter-Fluor viability, 18-24 h; Potency, µM (series often up to 46 µM), most hits filed as inhibitors; 390,000 tested, 0.16% active
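Cytotoxicity counterscreen: CellTiter-Fluor fluorescence was measured in A549 ARE_Fluc cells after 18-24 h of compound exposure in a concentration series. The subsequent BugLite luminescent read reports ARE-luciferase activity.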
Nrf2 inh – Nrf2 pathway inhibition. A549 ARE-Fluc reporter, luciferase luminescence, 18-24 h. Potency, µM (highest dose often 46 µM), most hits filed as inhibitors. 360,000 tested, 2.1% active. AID 504444; further: nearly all actives have a fitted effect of over 60% in size
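A549 ARE_Fluc cells (5000/well, 5% FBS OPTI-MEM) pre-incubated 2 h, then treated with compounds 18-24 h at 37C/5% CO2 in concentration-response. CellTiter-Fluor viability read first; BugLite luciferase luminescence after 15 min at room temperature gives Nrf2 activity.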
Of the large screens only hits and unclear results are named; the others gave an inactive call. This is a sample that favours compounds with a hit; in the whole collection about 2.3% have one here. Unless noted, the call rests on the fitted dose curve; in most records, active means well fitted curve in the direction sought with a large enough effect; inconclusive means small, poorly fitted or top-dose-only effect, or another doubt; inactive means no such curve, though single readings can be large; an effect the other way counts as inactive or inconclusive.

COc1ccc([N+](=O)[O-])cc1NC(=S)NC(NC(=O)C(c1ccccc1)c1ccccc1)C(Cl)(Cl)Cl (stereo not drawn)	miR-21 FLuc inconclusive, A549 viability inconclusive, Nrf2 inh 15µM
O=C(CSc1cccc[n+]1[O-])Nc1cc([N+](=O)[O-])ccc1Cl	Nrf2 ARE act 10µM
COc1ccc([N+](=O)[O-])cc1NC(=O)C(C)NNC(=O)c1cccc([N+](=O)[O-])c1 (stereo not drawn)	Nrf2 inh 16µM (no result: miR-21 FLuc, Mito fusion act)
COc1ccc([N+](=O)[O-])cc1NC(=O)C(C)c1ccccc1 (stereo not drawn)	none
COc1ccc([N+](=O)[O-])cc1NC(=O)CSc1ccc2ccccc2c1	Nrf2 ARE act inconclusive, Nrf2 inh 18µM
COc1ccc([N+](=O)[O-])cc1NC(=O)CSc1nc(C)cc(C)n1	none
COc1ccc([N+](=O)[O-])cc1NC(=O)C(C)Sc1ccc(C)cc1 (stereo not drawn)	Nrf2 inh 18µM
CN(C)c1ccc(C=c2c3ccccc3n3c2cc(-c2ccc(Cl)cc2)[n+]3C)cc1	A549 viability inconclusive, Nrf2 inh inconclusive (no result: miR-21 FLuc, Mito fusion act)
CN(C)c1ccc(C=c2c3ccccc3n3c2cc(-c2ccccc2)[n+]3C)cc1	A549 viability 16µM, Nrf2 inh 5.8µM (no result: miR-21 FLuc, Mito fusion act)
CN(C)c1ccc(C=c2c3cc([N+](=O)[O-])ccc3n3c2cc(-c2ccccc2)[n+]3C)cc1	A549 viability inconclusive, Nrf2 inh 8.2µM (no result: miR-21 FLuc, Mito fusion act)
COc1cc(N(C)C)ccc1C=c1c2ccccc2n2c1cc(-c1ccccc1)[n+]2C	A549 viability inconclusive, Nrf2 inh 15µM (no result: miR-21 FLuc, Mito fusion act)
COc1cc(C=c2c3ccccc3n3c2cc(-c2ccccc2)[n+]3C)cc(OC)c1OC	A549 viability inconclusive, Nrf2 inh 16µM (no result: miR-21 FLuc, Mito fusion act)
CN(C)c1ccc(C=c2c3ccccc3n3c2c2c([n+]3C)CCCC2)cc1	A549 viability 21µM, Nrf2 inh 6.5µM (no result: miR-21 FLuc, Mito fusion act)
Cc1ccc(-c2nnc3ccc(SCC(=O)OCc4ccccc4)nn23)cc1	none (no result: miR-21 FLuc, Mito fusion act, Nrf2 ARE act)
Clc1ccccc1C1=CC(c2ccco2)n2ncnc2N1 (stereo not drawn)	Nrf2 ARE act 11µM
O=C(/C=C/c1ccccc1)NC(NC(=S)Nc1cc(Cl)ccc1Cl)C(Cl)(Cl)Cl (stereo not drawn)	A549 viability inconclusive, Nrf2 inh 4.1µM
CC(Sc1nc2c(c(=O)[nH]1)CCCC2)C(=O)Nc1cc(C(F)(F)F)ccc1Cl (stereo not drawn)	none (no result: Mito fusion act)
O=C(NCCc1nc2ccccc2[nH]1)c1cccc(Br)c1	Nrf2 inh 26µM
O=C(Nc1sc2c(c1C(=O)O)CCCC2)c1ccc(Cl)cc1	A549 viability inconclusive, Nrf2 inh 6.5µM
CCC(C)(C)C1CCc2c(sc(N)c2C(N)=O)C1 (stereo not drawn)	Nrf2 inh 18µM
CC(C)(C)C1CCc2c(sc(N)c2C(N)=O)C1 (stereo not drawn)	none
O=C(NCc1ccc(F)cc1)C(c1ccccc1)c1ccccc1	none
CC(=O)N(Cc1ccc(F)cc1)C1=C(NCc2ccccc2)C(=O)c2ccccc2C1=O	miR-21 FLuc inconclusive, A549 viability 10µM, Nrf2 inh 6.3µM
COc1ccc(C(CC(=O)Nc2ccc(Br)cn2)N2Cc3ccccc3C2=O)cc1 (stereo not drawn)	Nrf2 inh inconclusive (no result: Mito fusion act)
C#CCn1c(C2CC(=O)N(c3ccc(OCC)cc3)C2)nc2ccccc21 (stereo not drawn)	none (no result: Mito fusion act)
CCn1cc(CCC(=O)NCc2ccc(C)cc2)c2ccccc21	none (no result: Mito fusion act)
Cc1ccc(Cn2cc(CCC(=O)NCC(C)c3ccccc3)c3ccccc32)cc1 (stereo not drawn)	miR-21 FLuc inconclusive, A549 viability inconclusive, Nrf2 inh 18µM (no result: Mito fusion act)
Cn1cc(CCC(=O)NCc2cccc(Cl)c2)c2ccccc21	Mito fusion act 32µM
COc1ccc(OC)c(S(=O)(=O)NCCc2sc(-c3ccc(C)cc3)nc2C)c1	none (no result: Mito fusion act, Nrf2 inh)
COc1cc(OC)cc(-c2nnc3n2N=C(c2ccc(OC)c(OC)c2)CS3)c1	none (no result: miR-21 FLuc, Mito fusion act, Nrf2 ARE act)
COc1cc(Cl)c(C)cc1NS(=O)(=O)c1c(C)nc2sccn2c1=O	none (no result: Mito fusion act)
Cc1c(Cl)cccc1NC(=O)CN1C(=O)CSc2ccc(S(=O)(=O)N3CCCC3)cc21	Nrf2 inh inconclusive (no result: Mito fusion act)
C/C(=C\CNc1ncnc2nc[nH]c12)CO	none (no result: miR-21 FLuc, Mito fusion act)

Screens deposited in PubChem BioAssay by National Center for Advancing Translational Sciences (NCATS).
